Assay results from ChEMBL document CHEMBL1275533, “In vitro antibacterial activity of vertilmicin and its susceptibility to modifications by the recombinant AAC6'-APH2'' enzyme” (2008).

Assays:
Morganella morganii = assay: Antibacterial activity against non-gentamicin-resistant Morganella morganii clinical isolate after 18 hrs by agar dilution method; format: functional
Escherichia coli [1] = settings: ATCC 25922
Escherichia coli [2] = assay: Antibacterial activity against non-gentamicin-resistant Escherichia coli clinical isolate after 18 hrs by agar dilution method; format: functional

GENTAMICIN
0.5 µg/mL: MIC50 (Morganella morganii) | MIC (Escherichia coli [1]) | MIC50 (Escherichia coli [2])
